Read-outs that look alike come from different tables or passages of the source.
Assays:
human hisTRIM7-PRYSPRY = human hisTRIM7-PRYSPRY (Homo sapiens, UniProt Q9C029); assay: ITC binding to human TRIM7 PRYSPRY (wild type); details: for N (stoichiometry): for hGYG1-GN1 (**) concentration of GYG1 dimer used in the analysis
hisTRIM7-PRYSPRY R385A = hisTRIM7-PRYSPRY R385A (Homo sapiens, UniProt Q9C029, R385A); details: ITC, 25 °C, TRIM7 20 µM, peptide 400 µM; NB = no binding
hisTRIM7-PRYSPRY Q436A = hisTRIM7-PRYSPRY Q436A (Homo sapiens, UniProt Q9C029, Q436A); details: ITC, 25 °C, TRIM7 20 µM, peptide 400 µM; NB = no binding
hisTRIM7-PRYSPRY T384A = hisTRIM7-PRYSPRY T384A (Homo sapiens, UniProt Q9C029, T384A); assay: biochemical; format: binding
hisTRIM7-PRYSPRY N383A = hisTRIM7-PRYSPRY N383A (Homo sapiens, UniProt Q9C029, N383A); details: ITC, 25 °C, TRIM7 20 µM, peptide 400 µM; NB = no binding
hisTRIM7-PRYSPRY L423A = hisTRIM7-PRYSPRY L423A (Homo sapiens, UniProt Q9C029, L423A); details: ITC, 25 °C, TRIM7 20 µM, peptide 400 µM; NB = no binding; * potential weak binding with KD estimated >100 µM
hisTRIM7-PRYSPRY N438A = hisTRIM7-PRYSPRY N438A (Homo sapiens, UniProt Q9C029, N438A); assay: biochemical; format: binding
hisTRIM7-PRYSPRY F426A = hisTRIM7-PRYSPRY F426A (Homo sapiens, UniProt Q9C029, F426A); details: ITC, 25 °C, TRIM7 20 µM, peptide 400 µM; NB = no binding

Compound: CC(C)C[C@H](NC(=O)[C@H](C)NC(=O)[C@H](CCC(=O)O)NC(=O)[C@@H](N)CC(C)C)C(=O)N[C@@H](CCC(=O)O)C(=O)N[C@@H](Cc1ccccc1)C(=O)N[C@@H](CCC(N)=O)C(=O)O [MNV1-NS61172-1178]
- Kd (human hisTRIM7-PRYSPRY): 8.7 ± 3.2 µM
- DH (human hisTRIM7-PRYSPRY; ITC, 25 °C, TRIM7 20 µM): -48.953 ± 9.414 kJ/mol
- N (stoichiometry) (human hisTRIM7-PRYSPRY; ITC, 25 °C): 1.13±1.62
- KD (hisTRIM7-PRYSPRY R385A): No binding
- Kd (hisTRIM7-PRYSPRY R385A): > 100 µM

Compound: CC(C)C[C@H](NC(=O)CNC(=O)[C@H](Cc1ccccc1)NC(=O)[C@H](CC(=O)O)NC(=O)[C@H](CC(=O)O)NC(=O)[C@@H](N)Cc1c[nH]cn1)C(=O)N[C@@H](CCC(N)=O)C(=O)O [MNV1-NS3700-706]
- Kd (human hisTRIM7-PRYSPRY): 14.7 ± 4.3 µM
- Kd (hisTRIM7-PRYSPRY R385A): > 100 µM

Compound: CC[C@H](C)[C@H](NC(=O)[C@@H](N)[C@@H](C)O)C(=O)N[C@@H](CCC(=O)O)C(=O)N[C@@H](C)C(=O)N[C@@H](CC(C)C)C(=O)N[C@@H](Cc1ccccc1)C(=O)N[C@@H](C)C(=O)O [TIEALFA]
- Kd (human hisTRIM7-PRYSPRY; ITC, one-site model, 25 °C, 150 mM NaCl, 50 mM Tris pH 8, 1 mM DTT, 0-1% DMSO, TRIM7 20 µM, ligand 400 µM (Ac-LQ, Ac-LLQ 800 µM; LQ 2000 µM), NB = no binding): > 100 µM

Compound: CC[C@H](C)[C@H](NC(=O)[C@@H](N)[C@@H](C)O)C(=O)N[C@@H](CCC(=O)O)C(=O)N[C@@H](C)C(=O)N[C@@H](CC(C)C)C(=O)N[C@@H](Cc1ccccc1)C(=O)N[C@@H](CCC(N)=O)C(=O)O [CVB-2C208-214]
- KD (hisTRIM7-PRYSPRY Q436A): No binding
- Kd (hisTRIM7-PRYSPRY Q436A): > 100 µM
- Kd (hisTRIM7-PRYSPRY T384A): 21.2 ± 5.84 µM
- DH (hisTRIM7-PRYSPRY T384A; ITC, 25 °C, N fixed to 1): -25.61 ± 2.95 kJ/mol
- Kd (human hisTRIM7-PRYSPRY): 11.2 ± 4.2 µM
- DH (human hisTRIM7-PRYSPRY; ITC, 25 °C, TRIM7 20 µM): -52.718 ± 14.98 kJ/mol
- N (stoichiometry) (human hisTRIM7-PRYSPRY; ITC, 25 °C): 0.90±0.2
- KD (hisTRIM7-PRYSPRY N383A): No binding
- Kd (hisTRIM7-PRYSPRY N383A): > 100 µM
- KD (hisTRIM7-PRYSPRY L423A): No binding
- Kd (hisTRIM7-PRYSPRY L423A): > 100 µM
- KD (hisTRIM7-PRYSPRY R385A): No binding
- Kd (hisTRIM7-PRYSPRY R385A): > 100 µM
- Kd (hisTRIM7-PRYSPRY N438A): 7.82 ± 1.18 µM
- DH (hisTRIM7-PRYSPRY N438A; ITC, 25 °C): -43.514 ± 3.81 kJ/mol
- N (stoichiometry) (hisTRIM7-PRYSPRY N438A; ITC, 25 °C): 0.92±0.06
- KD (hisTRIM7-PRYSPRY F426A): No binding
- Kd (hisTRIM7-PRYSPRY F426A): > 100 µM

Compound: C[C@H](N)C(=O)N[C@@H](C)C(=O)N[C@@H](C)C(=O)N[C@@H](C)C(=O)N[C@@H](C)C(=O)N[C@@H](C)C(=O)N[C@@H](C)C(=O)O [polyA]
- KD (human hisTRIM7-PRYSPRY; pH 8): no binding
- Kd (human hisTRIM7-PRYSPRY; pH 8): > 100 µM

Source: publication PMC9394474 (Viruses, 2022)
